In patent publication US20250064801A1, “USE OF 5-AMINO-2,3-DIHYDRO-1,4-PHTHALAZINEDIONE IN THE TREATMENT OF CONGENITAL MUSCULAR DYSTROPHIES” (METROPHARM AG, priority 2022, published 2025):

Test: Body weight of mdx mice measured weekly over the treatment period
Conditions: three concentrations (1.0, 2.5, 5.0 mg/kg IP), weeks of age 5-10

Nc1cccc2c(=O)[nH][nH]c(=O)c12.[Na] [5-amino-2,3-dihydro-1,4-phthalazinedione sodium salt]
body weight over the treatment period versus untreated mdx mice and wild type mice: no differences
